The record followed here is ChEMBL document CHEMBL1142690, “Synthesis of NO-donor bisphosphonates and their in-vitro action on bone resorption” (J Med Chem, 2005).

Each structure is given as a SMILES string.

Series [1] can be described thus: Uptake ratio in bone to that of muscle at 4 hours. As to conditions: rat, Muscle tissue.
Series [2] can be described thus: Uptake ratio in bone to that of blood at 2 hours. As to conditions: rat.
Series [3] is described as follows: Uptake ratio in bone to that of blood at 4 hours. As to conditions: rat.
Series [4] is described as follows: Uptake ratio in bone to that of muscle at 2 hours. The conditions noted are these: rat, Muscle tissue.

`O=[N+]([O-])OCC(CCCC(O)(P(=O)(O)O)P(=O)(O)O)O[N+](=O)[O-]` (stereo not drawn): the Biodistribution in series [1] was found to be 272; in series [2] it was 15.2; in series [3], 54.4; in series [4] it was 66.8.

For `O=[N+]([O-])OCC(CCCC(P(=O)(O)O)P(=O)(O)O)O[N+](=O)[O-]` (stereo not drawn), the Biodistribution in series [1] is 154; in series [2], 10.2; in series [3] it was 21.2; in series [4], 59.
